Measurements taken from publication PMC10860255, “Scalable production of recombinant three-finger proteins: from inclusion bodies to high quality molecular probes” (2024).

Target: recombinant mouse Pate B (mouse) (UniProt Q09098)
Experiment: SEC

**Q.** For “recombinant mouse Pate B (from UniProt Q09098 24-99) (natural protein)”, which stoichiometry N is on record?
**A.** 2
